Most compounds without a hit are left out; they make up all but 16% or so of the library.
TDP1 inh – TDP1 (human) enzyme inhibition; AID 485290; 0.28% of 350,000 active; Potency, µM (top dose mostly 130 µM), for the others: at the top dose activity change, negative = inhibition, usual class: inhibitors; recombinant TDP1, AlphaScreen DNA substrate cleavage; Q9NUW8; further: potency means the concentration at half of the fitted maximal effect; on the % scale 0 is the no-effect control and ±100 the full control effect; nearly all actives have a fitted effect of over 40% in size
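Recombinant human Tdp1 (E. coli-expressed, 1 nM final) preincubated with compounds 15 min at room temperature, then 5'-biotin/3'-phosphotyrosine-FITC DNA substrate (15 nM final) added for 5 min. AlphaScreen beads (10 ug/ml final) added 10 min; cleavage lowers signal.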
TDP1 cell noCPT – qHTS for Inhibitors of human tyrosyl-DNA phosphodiesterase 1 (TDP1): qHTS in cells in absence of CPT; DT40 Tdp1-/- hTDP1 cells, no CPT, ATP luminescence, 48 h; Potency, µM (doses to about 46.2 µM), inactives show top-dose activity change, negative = growth inhibition, hits mostly inhibitors; 15% of 420,000 active; further: potency means the concentration at half of the fitted maximal effect; on the % scale 0 is the no-effect control and ±100 the full control effect; nearly all actives have a fitted effect of over 55% in size
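Luminescent ATP content (CellTiter-Glo) served as the growth readout. Knockout chicken DT40 cells expressing human TDP1 were exposed to compounds without camptothecin for a minimum 48 hr at 37 °C.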
uPA generation – inhibitors of cell surface uPA generation. 0.31% of 330,000 active. AID 540303. cell surface uPA generation assay, qHTS. Potency, µM (top dose mostly 38.3 µM), inactives show at the top dose activity change, negative = inhibition, actives largely listed as inhibitors; active means well fitted inhibition curve with a large enough effect; inconclusive means small, poorly fitted or top-dose-only effect; inactive means no such curve, though single readings can be large or run the other way; tested in mouse RAW 264.7 cells; further: potency means the concentration at half of the fitted maximal effect; on the % scale 0 is the no-effect control and ±100 the full control effect; nearly all actives have a fitted effect of over 55% in size
TDP1 cell CPT – growth inhibition of DT40 Tdp1-/-;hTDP1 cells with camptothecin (screen for TDP1 inhibitors) | chicken DT40 Tdp1-/-;hTDP1 cells + 20 nM CPT, ATP luminescence, 48 h | Potency, µM (highest dose often 46.2 µM), inactives show at the highest dose activity change, negative = growth inhibition, usual class: inhibitors | 12% of 420,000 active | AID 686979; further: potency means the concentration at half of the fitted maximal effect; on the % scale 0 is the no-effect control and ±100 the full control effect; nearly all actives have a fitted effect of over 55% in size
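Cell growth measured by CellTiter-Glo luminescence after a minimum 48 h, 37 C compound exposure with 20 nM CPT in Tdp1-knockout DT40 cells stably expressing hTDP1, seeded 400/well; qHTS titration format.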
miR-21 reporter – miR-21 reporter, rising signal | Potency, µM (highest dose often 38.3 µM), for inactives: at the highest dose reporter change, positive = more light | 340,000 tested, under 10 active | HeLa miR-21 FLuc reporter, luciferase, 48 h; active = well fitted rising curve with a large enough effect; inconclusive = small, poorly fitted or top-dose-only effect; inactive = no such curve, though single readings can be large or run the other way;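 note: % of control where 0% means no effect; miR-21 action dims this reporter so a rising signal means less miR-21 action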
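HeLa cells stably expressing CMV-driven firefly luciferase with a downstream miR-21 binding sequence, endogenously expressing miR-21, were treated with titrations (up to about 40uM final) for 48 hours at 37 degree Celsius. Luciferase luminescence was read after lysis.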
Active calls of the source: *; ? = inconclusive; · = no result; [ ] = dose if it differs, or a comment. Unless noted, the call rests on the fitted dose curve; in most records, active means well fitted curve in the direction sought with a large enough effect; inconclusive means small, poorly fitted or top-dose-only effect, or another doubt; inactive means no such curve, though single readings can be large; an effect the other way counts as inactive or inconclusive.

Letters – A = TDP1 inh; B = TDP1 cell noCPT; C = uPA generation; D = TDP1 cell CPT; E = miR-21 reporter
Oc1ccccc1C1CC(c2cccs2)=NC(c2cccc(Br)c2)N1 (centres undefined)
  A: 3.4% | B: 20.6µM* | C: -11.5% | D: 14.6µM* | E: 28.0%

COc1ccc(NC(=S)N2CCNC(=O)C2CC(=O)Nc2cccc(Cl)c2C)cc1 (centres undefined)
  A: 3.5% | B: -13.4% | C: -1.7% | D: 2.2% | E: -12.7%

CCCCN(C=O)c1c(CC)nc2c(OCc3ccccc3C)cccn12
  A: · | B: ? | C: · | D: 14.6µM* | E: ·

CCCCC(=O)N(C)c1c(CC)nc2c(OCC(N)=O)cccn12
  A: · | B: 7.1% | C: · | D: 6.5% | E: ·

CCCCN(C=O)c1c(CC)nc2c(OCc3ccc(Cl)cc3Cl)cccn12
  A: · | B: 9.2µM* | C: · | D: 20.6µM* | E: ·

CCc1nc2c(OCc3ccccc3C)cccn2c1N(C)C(=O)C1CC1
  A: · | B: 23.1µM* | C: · | D: ? | E: ·

CCCCC(=O)N(C)c1c(CC)nc2c(OCC(=O)N(C)C)cccn12
  A: · | B: -1.4% | C: · | D: 1.3% | E: ·

C=CCNC(=S)Nc1cccc(N)c1
  A: 4.8% | B: 1.7% | C: -2.0% | D: 5.5% | E: 4.5%

CCCn1c(=O)c(C(=O)N/N=C/c2ccc(F)cc2)c(O)c2ccccc21
  A: 3.7% | B: 5.17µM* | C: 1.7% | D: 9.2µM* | E: -14.1%

CCCn1c(=O)c(C(=O)Nc2cccc(C)c2)c(O)c2ccccc21
  A: · | B: ? | C: 28.9% | D: ? | E: -14.6%

CCCCCCn1c(=O)c(C(=O)N/N=C/c2cccc(F)c2)c(O)c2ccccc21
  A: 4.9% | B: 1.03µM* | C: 0.2% | D: 0.92µM* | E: 2.9%

CCCn1c(=O)c(C(=O)N/N=C/c2ccccc2F)c(O)c2ccccc21
  A: -1.2% | B: 19.6% | C: -0.6% | D: 17.1% | E: -39.4%

CC(C)CCn1c(=O)c(C(=O)N/N=C/c2cccc(F)c2)c(O)c2ccccc21
  A: 3.4% | B: 0.651µM* | C: -4.2% | D: 1.3µM* | E: -8.0%

CCSc1cc(C)nc2c(-c3ccccc3)cnn12
  A: 0.0% | B: ? | C: -22.9% | D: ? | E: -81.9%

CCOc1ccccc1NC(=O)Cn1c(=O)n(Cc2ccccc2)c(=O)c2cccnc21
  A: -2.9% | B: -0.6% | C: · | D: -2.5% | E: -5.7%

COc1ccccc1NC(=O)Cn1c(C)cc(=O)c2cccc(OC)c21
  A: 0.0% | B: 4.61µM* | C: -8.8% | D: 2.91µM* | E: 13.3%

COc1ccccc1NC(=O)Cn1c(=O)n(Cc2cccs2)c(=O)c2cccnc21
  A: -2.0% | B: -77.2% | C: · | D: 20.6µM* | E: -11.5%

COc1cccc2c(=O)cc(C)n(CC(=O)Nc3ccc(C)c(C)c3)c12
  A: 0.0% | B: 14.6µM* | C: -11.8% | D: ? | E: 14.0%

CCCCCC(=O)Nc1ccc(S(=O)(=O)Nc2nccnc2OC)cc1
  A: 3.4% | B: -4.4% | C: -0.8% | D: -6.3% | E: -6.6%

COc1ccc2[nH]c(=O)c(CNc3cccc(C)c3)cc2c1
  A: 3.1% | B: 11.6µM* | C: -4.9% | D: 13µM* | E: -38.0%

Some entries already given, limited to TDP1 cell CPT:
molecule	TDP1 cell CPT
COc1ccccc1NC(=O)Cn1c(=O)n(Cc2cccs2)c(=O)c2cccnc21	20.6µM*
COc1cccc2c(=O)cc(C)n(CC(=O)Nc3ccc(C)c(C)c3)c12	?
CCCCCC(=O)Nc1ccc(S(=O)(=O)Nc2nccnc2OC)cc1	-6.3%

More results:
Letters – A = TDP1 inh; B = TDP1 cell noCPT; C = uPA generation; D = TDP1 cell CPT; E = miR-21 reporter
COc1ccc(NCc2cc3ccccc3[nH]c2=O)cc1
  A: 3.9% | B: ? | C: -2.4% | D: ? | E: -31.5%

COc1ccc(NCc2cc3cc(OC)ccc3[nH]c2=O)cc1
  A: 9.6% | B: 23.1µM* | C: -19.9% | D: 8.2µM* | E: -1.4%

CNC(=O)C1Cc2ccccc2CN1S(=O)(=O)c1cccs1 (centres undefined)
  A: -1.1% | B: 11.1% | C: 2.3% | D: 1.6% | E: -7.8%

NC(=O)CSc1ccc(S(=O)(=O)N2CCOCC2)cn1
  A: -2.8% | B: 10.3% | C: -0.7% | D: 7.3% | E: ·

CC(C)N(C(=O)CSc1ccc(S(=O)(=O)N2CCCCC2)cn1)c1ccccc1
  A: 1.1%[56.1 µM] | B: 14.6µM* | C: -29.4% | D: ? | E: ·

CC(Sc1ccc(S(=O)(=O)N2CCOCC2)cn1)c1ccccc1Cl (centres undefined)
  A: 0.4% | B: 29.1µM* | C: 7.8% | D: ? | E: ·

CCN(C(=O)CSc1ccc(S(=O)(=O)N2CCOCC2)cn1)c1ccccc1
  A: 0.3%[56.1 µM] | B: 16.4µM* | C: 11.1% | D: ? | E: ·

O=C(CSc1ccc(S(=O)(=O)N2CCOCC2)cn1)Nc1ccc(F)c(F)c1
  A: 1.3%[56.1 µM] | B: 16.4µM* | C: -24.2% | D: 16.4µM* | E: ·

Cc1cc(C)cc(NC(=O)c2ccccc2CC[N+](=O)[O-])c1
  A: -8.3% | B: -6.1% | C: 6.2% | D: 4.6% | E: 0.3%

CC(C)NC(=O)COC(=O)/C=C/c1ccco1
  A: 4.5% | B: -2.2% | C: -1.1% | D: 15.7% | E: -1.1%

COc1ccc(NC(=O)CN2CCN(C3c4ccccc4-c4ccccc43)CC2)c(OC)c1
  A: 5.3% | B: 25.9µM* | C: 11.8% | D: ? | E: 1.4%

Source: PubChem BioAssay (National Center for Advancing Translational Sciences (NCATS))
